Results as given in publication PMC8041433 (Environmental Health Perspectives, 2021).
Values joined by “and” are separate entries in the source; they are usually repeats but may differ in a detail not shown here. Equal values may be shown once. Where a name gives a salt, the structure may show the parent alone. Read-outs that look alike come from different tables or passages of the source.

Protein sequences, listed by entry. Tags and fused reporters are not part of them. Residues count along the entry.
UniProt P22303, 32-614: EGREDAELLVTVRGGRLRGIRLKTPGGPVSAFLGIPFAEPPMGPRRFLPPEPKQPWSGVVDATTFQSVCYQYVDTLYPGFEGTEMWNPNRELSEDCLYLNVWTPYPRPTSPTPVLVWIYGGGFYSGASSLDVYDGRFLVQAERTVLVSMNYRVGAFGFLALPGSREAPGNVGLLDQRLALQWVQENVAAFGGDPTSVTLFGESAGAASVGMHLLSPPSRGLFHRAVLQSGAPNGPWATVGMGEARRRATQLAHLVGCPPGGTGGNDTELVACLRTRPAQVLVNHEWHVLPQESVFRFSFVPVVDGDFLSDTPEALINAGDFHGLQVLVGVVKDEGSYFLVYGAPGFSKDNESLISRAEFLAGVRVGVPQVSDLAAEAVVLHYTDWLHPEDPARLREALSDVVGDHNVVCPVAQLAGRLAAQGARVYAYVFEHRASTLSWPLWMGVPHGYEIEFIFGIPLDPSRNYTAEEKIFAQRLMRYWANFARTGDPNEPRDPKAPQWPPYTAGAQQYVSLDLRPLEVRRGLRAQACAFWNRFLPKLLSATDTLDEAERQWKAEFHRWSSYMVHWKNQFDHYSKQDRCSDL

How the values were obtained:
recombinant human AChE [1] = target: T1, recombinant human AChE (Homo sapiens, UniProt P22303); assay: biochemical
recombinant human AChE [2] = target: T1, recombinant human AChE; assay: biochemical; remark: listed apart in the source
AChE in SH-SY5Y cells = AChE in SH-SY5Y cells (Homo sapiens, UniProt P22303); assay: cell-based
[3] = target: AChE in SH-SY5Y spheroids (Homo sapiens, UniProt P22303); assay: cell-based; settings: for IC50: potency (IC50)
[4] = target: AChE in neural stem cells (Homo sapiens, UniProt P22303); assay: cell-based; settings: for AC50: AC50 (uM)
[5] = target: AChE in neural stem cell spheroids (Homo sapiens, UniProt P22303); assay: cell-based; settings: for IC50: potency (IC50)
recombinant human AChE [6] = target: T1, recombinant human AChE; assay: biochemical; format: biochemical; settings: for AC50: AC50 (uM)
recombinant human AChE [7] = target: T1, recombinant human AChE; assay: biochemical; remark: listed apart in the source
recombinant human AChE [8] = target: T1, recombinant human AChE
[9] = potency (IC50), SH-SY5Y cells monolayer
[10] = Neural stem cell spheroid (48 h)
[11] = potency (IC50), Enzyme with microsomes
[12] = Neural stem cell spheroid (24 h)
Throughout, for IR or R: key: Reversible (R); Irreversible (IR); ND, not detected in enzyme-based AChE inhibition assay from current study.

SMILES | IC50 (recombinant human AChE [1]; potency (IC50), Enzyme) [µM] | IC50 (recombinant human AChE [2]) [µM] | IC50 (AChE in SH-SY5Y cells; [9]) [µM] | IC50 ([3]; SH-SY5Y spheroids (24 h)) [µM] | IC50 ([3]; SH-SY5Y spheroids (48 h)) [µM] | IC50 [4] [µM] | IC50 [5, 10] [µM] | IR or R (recombinant human AChE [6]) | AC50 (recombinant human AChE [6]) | IC50 (recombinant human AChE [7]; [11]) [µM] | CC-v2 (curve classes) (recombinant human AChE [1]) | IC50 (recombinant human AChE [1]; IC50 (uM)) | CC-v2 (curve classes) (AChE in SH-SY5Y cells) | IC50 (AChE in SH-SY5Y cells; IC50 (uM)) | IC50 [5, 12] [µM] | CC-v2 (curve classes) (recombinant human AChE [8]) | IC50 (recombinant human AChE [7]; IC50 (uM)) | further results
COc1cc(C(=O)NCc2ccc(OCCN(C)C)cc2)cc(OC)c1OC [Trimethobenzamide·HCl, reference compound] | 13.2 ± 1.82 | 21.7 | 10.2 ± 2.31 | 7.56 ± 1.83 | 12.7 ± 0.86 | 10.6 ± 4.17 | 20.8 | R | 15.3 µM (3×) and 19.3 µM (3×) and 17.2 µM and 21.7 µM | 21.8 ± 2.5 |  |  |  |  |  |  |  | potency (IC50), Neural stem cell spheroid (24 h) [5]: Inactive
CNC(=O)O/N=C/C(C)(C)SC [Aldicarb] | 9.25 ± 1.17 | 14.7 ± 1.87 | 10.7 ± 0.69 | 15.6 ± 6.69 | 10.3 ± 0.7 | 7.31 ± 0.49 | 8 ± 5.23 |  | 22.2 µM and 35.2 µM and 44.4 µM and 28 µM and 5.59 µM and 8.85 µM and 11.1 µM | 9.57 ± 0.62 | -1.1 | 11.2 µM and 18 µM | -1.1 | 5.64 µM and 6.39 µM and 5.02 µM | 5.04 ± 0.94 | -2.1 | 31.7 µM and 40.3 µM | IC50 (recombinant human AChE [1]; IC50): 8.89 µM; reversibility of AChE inhibition (result in words) (recombinant human AChE [6]): significant IC50 difference at 60 min
COc1ccc2cc3[n+](cc2c1OC)CCc1cc2c(cc1-3)OCO2 [Berberine] | 2.38 ± 0.59 |  | 1.42 ± 0.09 | 1.23 ± 0.69 | 2.89 ± 0.65 |  | 11 ± 2.05 | R | 2.17 µM and 3.43 µM (3×) and 3.06 µM and 1.72 µM and 4.32 µM | 10.9 ± 1.25 | -1.1 | 3.47 µM | -1.1 | 2.45 µM and 1.38 µM | 5.29 ± 0.9 | -2.1 | 24.5 µM | Efficacy (recombinant human AChE [1]): -87.809; IC50 (recombinant human AChE [2]; read-out: potency (IC50), Enzyme-based assay with heat-inactivated microsomes): 7.47 ± 1.27 µM; IC50 ([4]; read-out: potency (IC50), Neural stem cells monolayer): 7.41 ± 0.48 µM; Efficacy (recombinant human AChE [8]): -74.661
Oc1c(Cl)cc(Cl)c(Cl)c1Cc1c(O)c(Cl)cc(Cl)c1Cl [Hexachlorophene, reference compound] | 14.9 |  |  |  |  |  |  | R | 8.63 µM and 12.2 µM (2×) and 9.68 µM and 13.7 µM and 10.9 µM and 27.3 µM and 30.6 µM |  | -1.1 | 9.77 µM and 10 µM and 15.9 µM and 11.2 µM |  | 89.4 µM and 89.1 µM and 79.4 µM |  | 4 |  | potency (IC50), Enzyme-based assay with heat-inactivated microsomes (recombinant human AChE [2]): Inactive; potency (IC50), SH-SY5Y cells monolayer (AChE in SH-SY5Y cells): Inactive; potency (IC50), SH-SY5Y spheroids (24 h) [3]: Inactive; potency (IC50), SH-SY5Y spheroids (48 h) [3]: Inactive; potency (IC50), Neural stem cells monolayer [4]: Inactive; potency (IC50), Neural stem cell spheroid (24 h) [5]: Inactive; potency (IC50), Neural stem cell spheroid (48 h) [5]: Inactive; potency (IC50), Enzyme with microsomes (recombinant human AChE [8]): Inactive
Cl.Nc1c2ccccc2nc2ccccc12.O |  |  |  |  |  | 0.598 |  |  | 2.17 µM (2×) and 2.73 µM and 769 nM and 1.53 µM and 1.72 µM and 863 nM and 968 nM and 2.43 µM |  | -1.1 | 0.776 µM and 1.11 µM and 1.4 µM | -1.1 | 0.871 µM and 0.701 µM and 0.556 µM and 0.692 µM and 0.786 µM and 0.245 µM and 0.624 µM |  | -2.1 and -1.1 | 15.5 µM and 7.01 µM and 7.86 µM | CC-v1 [4]: -1.1; CC-v2 [4]: -1.1; Efficacy [4]: -93.475; Hill Coef [4]: 1.1; Max Resp [4]: -87.315; AC50 [4]: 0.485 µM
CN(C)c1ccc2nc3ccc(=[N+](C)C)cc-3sc2c1 [Methylene blue, reference compound] | 3.43 | 15.1 ± 3.76 | 2.44 ± 0.28 | 9.19 ± 7.13 | 7.13 ± 0.48 |  | 16.6 | R | 21.7 µM (3×) and 19.3 µM | 17.5 ± 4 | -1.1 | 2 µM and 2.45 µM | -1.1 | 1.12 µM and 1.1 µM and 0.796 µM and 0.977 µM and 0.71 µM | 13.7 ± 1.57 | -1.1 | 6.33 µM | 
O=C(CCC1CCN(Cc2ccccc2)CC1)c1ccc2c(c1)NCCCC2.O=C(O)/C=C/C(=O)O [Zanapezil fumerate, reference compound] | 0.68 ± 0.07 | 0.87 ± 0.1 | 0.24 | 0.15 ± 0.09 | 0.13 ± 0.02 | 3.56 ± 2.2 | 8.78 ± 2.01 |  | 343 nM and 769 nM and 968 nM (2×) and 611 nM and 685 nM (2×) and 544 nM and 863 nM | 0.56 ± 0.03 |  | 1.74 µM |  | 0.245 µM | 5.91 ± 0.81 |  | 3.09 µM | 
CNC(=O)Oc1cccc(C(C)C)c1 [m-Cumenyl methylcarbamate] |  |  |  |  |  |  |  |  |  |  | -1.1 |  | -1.1 |  |  | -2.2 |  | Efficacy (recombinant human AChE [1]): -86.828; Efficacy (recombinant human AChE [8]): -59.77
CCCCCCCCCCC[C@@H](C[C@@H]1OC(=O)[C@H]1CCCCCC)OC(=O)[C@H](CC(C)C)NC=O [Orlistat, reference compound] | 1.59 | 19.4 ± 2.23 | 4.91 | 9.46 | 8.82 | 3.44 | 2.36 | R |  |  | -1.1 | 3.47 µM | -1.2 | 6.17 µM and 2.45 µM and 3.47 µM | 3.9 |  |  | Efficacy (recombinant human AChE [1]): -81.515; reversibility of AChE inhibition (result in words) (recombinant human AChE [6]): reversible
CCOP(=O)(OCC)OC(=CCl)c1ccc(Cl)cc1Cl [Chlorfenvinphos] | 9.72 ± 1.11 | 7.16 ± 0.91 | 1.95 ± 0.41 | 1.55 ± 1.11 | 1.53 | 0.2 ± 0.07 | 0.04 ± 0.01 |  | 15.3 µM and 13.7 µM (2×) and 17.2 µM and 9.68 µM and 6.11 µM and 8.63 µM | 11.3 ± 0.76 |  | 2 µM |  | 2.52 µM and 1.78 µM | 0.03 ± 0.02 |  | 7.1 µM | 
CO[C@]12C[C@@H](COC(=O)c3cncc(Br)c3)CN(C)[C@@H]1Cc1cn(C)c3cccc2c13 [Nicergoline, reference compound] | 8.07 ± 1.45 | 13.9 ± 3.18 | 6.13 ± 0.7 | 3.88 ± 3.28 | 2.98 ± 0.51 | 16.6 ± 1.08 | 16.4 | R |  | 13.7 ± 1.57 | -1.1 | 6.17 µM | -1.1 | 3.09 µM and 6.92 µM and 3.47 µM | 16.1 ± 2.89 | -2.1 | 27.5 µM | Efficacy (recombinant human AChE [1]): -101.908; Efficacy (recombinant human AChE [8]): -84.711
COc1cc(C(=O)NCc2ccc(OCCN(C)C)cc2)cc(OC)c1OC [Trimethobenzamide hydrochloride] |  |  |  |  |  |  |  |  |  |  |  | 15.5 µM |  | 8.71 µM and 6.92 µM |  |  |  | 
Nc1c2ccccc2nc2ccccc12 [9-Aminoacridine, reference compound] | 1.17 ± 0.16 | 4.68 ± 0.3 | 0.97 ± 0.11 | 0.53 ± 0.4 | 1.05 ± 0.07 |  | 0.12 ± 0.05 | R |  | 4.87 ± 0.56 |  |  |  |  | 0.06 |  |  | 
CCN(CC)CCCC(C)Nc1c2ccc(Cl)cc2nc2ccc(OC)cc12 (stereo not shown) [Quinacrine, reference compound] | 5.46 ± 1.79 | 11.8 ± 2.02 | 3.44 ± 0.39 | 6.03 ± 2.86 | 4.19 ± 0.58 | 10.1 ± 0.68 |  | R |  | 12.5 ± 4.9 |  |  |  |  |  |  |  | potency (IC50), Neural stem cell spheroid (24 h) [5]: Inactive; potency (IC50), Neural stem cell spheroid (48 h) [5]: Inactive
CNC(=O)O/N=C/C(C)(C)S(C)(=O)=O [Aldoxycarb] | 18.4 ± 1.24 | 26 ± 1.76 | 15.2 ± 2.09 | 13.9 ± 6.95 | 19.1 ± 1.24 | 9.57 ± 0.62 | 10.1 |  | 35.2 µM and 49.8 µM (2×) and 44.4 µM (2×) and 15.7 µM and 12.5 µM | 23.1 ± 1.56 |  | 22.4 µM and 35.7 µM |  | 11.2 µM and 17.9 µM and 22.4 µM and 20 µM and 20.1 µM | 7.91 ± 4.02 |  | 63.2 µM and 80 µM | 
[Cl-].c1ccc(C[n+]2cccc3ccccc32)cc1 [1-Benzylquinolinium chloride] |  |  |  |  |  |  |  | R | 25 µM and 17.7 µM (2×) and 28 µM and 15.7 µM and 22.2 µM and 19.8 µM and 14 µM |  | -2.1 |  | -1.1 |  |  | -2.2 |  | AC50 (recombinant human AChE [1]): 6.27 µM; CC-v2 (curve class) (recombinant human AChE [1]): -2.1; Max Resp (recombinant human AChE [1]): -82.401; CC-v2 (curve class) (AChE in SH-SY5Y cells): -2.1; AC50 (AChE in SH-SY5Y cells; AC50): 14 µM and 17.7 µM; CC-v2 [3]: -1.2 and -1.1 and -2.1; Hill Coef [3]: 2.333 and 2.121 and 1.788 and 1.416; AC50 ([3]; AC50 (uM)): 9.93 µM and 12.5 µM (2×); CC-v1 [4]: -2.2; CC-v2 [4]: -2.2; Hill Coef [4]: 1.416 and 1 and 1.344; AC50 [4]: 44.4 µM and 28 µM and 17.7 µM; Hill Coef [5]: 4.449 and 2.406 and 3.929 and 2.638; AC50 ([5]; AC50 (uM)): 39.5 µM (2×) and 35.2 µM; Efficacy (recombinant human AChE [8]): -50.659
